Assay results reported in paper PMC7597557 (PLoS Pathogens, 2020).

Tests used:
[1] = In vitro epitope processing (peptide degradation) assay in BMDC lysosomal extracts, mass spectrometry; conditions: 37C, pH4, LC-MS
[2] = In vitro epitope processing (peptide degradation) assay in macrophage lysosomal extracts, mass spectrometry; conditions: 2 nmol 34-mer, 15 ug macrophage lysosomal extract, 37C, LC-MS, one representative experiment

## CC[C@H](C)[C@H](N)C(=O)N[C@@H](CCSC)C(=O)N[C@@H](Cc1ccc(O)cc1)C(=O)N[C@@H](CC(N)=O)C(=O)N[C@@H](Cc1ccc(O)cc1)C(=O)N1CCC[C@H]1C(=O)N[C@H](C(=O)N[C@@H](CCSC)C(=O)O)[C@@H](C)O [A10T] (H-IMYNYPTM-OH)
[1]; 10 and 30 minutes, BMDC lysosomal extract
  Production of TB10.4_4−11 epitope from the 34-mer (comparison in words): similarly produced
[1]; 2 minutes, 2 nmol 34-mer, 15 ug BMDC lysosomal extract
  Production of TB10.4_4−11 epitope from the 34-mer: not detected
[1]; after 30 minutes within a 1-hour degradation, BMDC lysosomal extract, one representative experiment
  Production of TB10.4_4−11 epitope from the 34-mer, final level reached: 0.252%
[2]; 2 minutes, pH4 degradation buffer
  Production of TB10.4_4−11 epitope from the 34-mer, % of total amount of peptides: none detected
[2]; 10 minutes (peak), pH4
  Production of TB10.4_4−11 epitope from the 34-mer, % of total amount of peptides: 0.147%
[2]; 30 minutes, pH4
  Production of TB10.4_4−11 epitope from the 34-mer, % of total amount of peptides: 0.09%
[2]; 60 minutes, pH4
  Production of TB10.4_4−11 epitope from the 34-mer, % of total amount of peptides: 0.067%

Peptide text beside a SMILES is read from it.
